In patent US20250186496A1, “METHODS AND COMPOSITIONS FOR CONTROLLING T CELL ACTIVATION” (The General Hospital Corporation, priority 2022, published 2025):

Test system: CAR19 cells
Assay: Long-term expansion on weekly exposure to irradiated CD19+K562s with or without lenalidomide
Details: 1 μM lenalidomide; weekly 1:1 irradiated CD19+K562s

## Nc1cccc2c1CN(C1CCC(=O)NC1=O)C2=O (stereo not shown) [lenalidomide]
  effect of lenalidomide on expansion of CAR19 cells with mbdIL7: decreased expansion of CAR19 cells with mdbIL7 to the same level as CAR19 cells without mdbIL7
